Test results published in patent US9884122B2, “Small molecule drug conjugates” (Philochem AG, priority 2014, dated 2018).

Target: CAIX (Homo sapiens, UniProt Q16790)
Assay: Binding performance by surface plasmon resonance (B1, B2)
Details: SPR
Excerpt: Binding experiments of monovalent and bivalent AAZ derivatives to CAIX using surface plasmon resonance indicated a fast association for both compounds (ka=1.48×10^6 M^−1 s^−1 and ka1=1.28×10^6 M^−1 s^−1, ka2=1.36×10^6 RU^−1 respectively).

NCCOCCOCCNC(=O)CCCCn1cc(CCCC(=O)Nc2nnc(S(N)(=O)=O)s2)nn1
Kd: 10.5 nM
dissociation from the CAIX-coated surface (in words): completely dissociated from the CAIX-coated surface within seconds
kd: 0.015 s⁻¹
ka (monovalent): 1.48e+06 M⁻¹ s⁻¹
